Measured values taken from patent US4029778A (priority 1969, dated 1977).

What was measured:
Hepatoma 130 tumor = Hepatoma 130 tumor growth inhibition and lethality, intraperitoneal (Table 2); settings: 1 × dose
Walker 256 tumor = Walker 256 tumor growth inhibition and lethality, intraperitoneal (Table 4); settings: 5 × dose
Ehrlich ascites tumor = Ehrlich ascites tumor growth inhibition and lethality, intraperitoneal (Table I)

O=C(O)c1ccc(N(CCCl)CCCl)cc1
ED50 (Effect) (Hepatoma 130 tumor): 20 mg/kg
LD50 (Lethality) (Hepatoma 130 tumor): 125 mg/kg
ED50 (Effect) (Walker 256 tumor): 13.4 mg/kg
LD50 (Lethality) (Walker 256 tumor): 89 mg/kg
LD50 (Lethality) (Ehrlich ascites tumor; 1 × dose): 125 mg/kg
Effect (Ehrlich ascites tumor; at 1 × 63 mg/kg): no effect
